Measurements taken from PMC13070491, “Single-nucleus transcriptomics, pharmacokinetics, and pharmacodynamics of CDK4/6 and mTOR inhibition in a Phase 0/1 trial of recurrent high-grade glioma” (Neuro-Oncology, 2025).

Test system: GB126, GB239 and GB86 patient-derived cell lines
Test: In vitro single-cell RNA sequencing, analyses across the cell lines (pseudobulk differential gene expression, GSEA, non-cycling cells)
Format: cell-based, human
Description: Patient-derived glioma stem cell lines (GSCs; GB126, GB86, and GB239) were established from resected GBM tumor tissue. Cell lines were genetically profiled for mutations and copy number aberrations using the IvySeq custom gene panel. […] GB239 was derived from a tumor sample included in this Phase 0 trial (tumor sample: 100-0039). All human GSCs were cultured as described previously.[12]
Following the fifth day of drug exposure, cells were harvested, cryopreserved to be processed at a later point, or immediately processed for single-cell RNA sequencing (10x Genomics, 3’ version 3). The single-cell RNA sequencing data were then processed via cellranger count and Seurat. Briefly, cells were filtered out based on the following criteria: minimum number of genes detected >500 and <10 000 with a maximum percentage of mitochondrial genes set to 10%. Statistical assessment was made between the malignant proportions of each cell state using a 2-sided paired t-test.
Descriptive statistics of the clinical data are included in Table 1. Comparisons between groups were conducted using a 2-sided or paired 2-sided t-test, where indicated. P < .05 was considered significant. Multiple hypothesis test corrections (ie, false discovery rate correction) were applied for snRNAseq pseudobulk differential expression analysis.

## CN(C)C(=O)c1cc2cnc(Nc3ccc(N4CCNCC4)cn3)nc2n1C1CCCC1 [ribo]
Feature TP53AIP1, ribociclib versus control (DMSO)
  log2FoldChange: 1.033
Feature TRIM38, ribociclib versus control (DMSO)
  log2FoldChange: 1.064
Feature TRPC7-AS1, ribociclib versus control (DMSO)
  log2FoldChange: 1.034
Feature TSGA10IP, ribociclib versus control (DMSO)
  log2FoldChange: 1.063
Feature TTC29, ribociclib versus control (DMSO)
  log2FoldChange: 1.023
Feature TYRP1, ribociclib versus control (DMSO)
  log2FoldChange: 1.296
Feature WNK4, ribociclib versus control (DMSO)
  log2FoldChange: 1.104
Feature WNT2, ribociclib versus control (DMSO)
  log2FoldChange: 1.245
Feature Z80897.1, ribociclib versus control (DMSO)
  log2FoldChange: 1.151
Feature Z82195.3, ribociclib versus control (DMSO)
  log2FoldChange: 1.024
Feature Z93403.1, ribociclib versus control (DMSO)
  log2FoldChange: 1.02
Feature Z99774.1, ribociclib versus control (DMSO)
  log2FoldChange: 1.047
Feature ZBTB20-AS2, ribociclib versus control (DMSO)
  log2FoldChange: 1.2872
Feature ZBTB20-AS3, ribociclib versus control (DMSO)
  log2FoldChange: 1.215
Feature ZG16B, ribociclib versus control (DMSO)
  log2FoldChange: 1.184
Feature ZNF630-AS1, ribociclib versus control (DMSO)
  log2FoldChange: 1.111
Gene AC002472.1, ribociclib versus control (DMSO)
  log2FoldChange AC002472.1: 1.35
Gene AC004470.1, ribociclib versus control (DMSO)
  log2FoldChange AC004470.1: 1.412
Gene AC005180.2, ribociclib versus control (DMSO)
  log2FoldChange: -1.1
Gene AC007317.1, ribociclib versus control (DMSO)
  log2FoldChange AC007317.1: 1.365
Gene AC007952.4, ribociclib versus control (DMSO)
  log2FoldChange: -1.0063
Gene AC008397.1, ribociclib versus control (DMSO)
  log2FoldChange AC008397.1: 1.402
Gene AC008543.1, ribociclib versus control (DMSO)
  log2FoldChange: -1.176
Gene AC008750.7, ribociclib versus control (DMSO)
  log2FoldChange: -1.123
Gene AC010173.1, ribociclib versus control (DMSO)
  log2FoldChange: -1.123
Gene AC010395.1, ribociclib versus control (DMSO)
  log2FoldChange AC010395.1: 1.368
Gene AC010503.1, ribociclib versus control (DMSO)
  log2FoldChange AC010503.1: 1.351
Gene AC012073.1, ribociclib versus control (DMSO)
  log2FoldChange: -1.039
Gene AC017006.2, ribociclib versus control (DMSO)
  log2FoldChange: 1.009
Gene AC018638.6, ribociclib versus control (DMSO)
  log2FoldChange AC018638.6: 1.414
Gene AC020551.1, ribociclib versus control (DMSO)
  log2FoldChange: 1.009
Gene AC022182.2, ribociclib versus control (DMSO)
  log2FoldChange: 1.017
Gene AC022816.1, ribociclib versus control (DMSO)
  log2FoldChange AC022816.1: 1.4
Gene AC023282.1, ribociclib versus control (DMSO)
  log2FoldChange AC023282.1: 1.352
Gene AC024382.1, ribociclib versus control (DMSO)
  log2FoldChange AC024382.1: 1.406
Gene AC024901.1, ribociclib versus control (DMSO)
  log2FoldChange: 1
Gene AC024996.1, ribociclib versus control (DMSO)
  log2FoldChange AC024996.1: 1.387
Gene AC051619.8, ribociclib versus control (DMSO)
  log2FoldChange: -1.008
Gene AC068633.1, ribociclib versus control (DMSO)
  log2FoldChange: 1.016
Gene AC078785.2, ribociclib versus control (DMSO)
  log2FoldChange: 1.014
Gene AC079304.1, ribociclib versus control (DMSO)
  log2FoldChange AC079304.1: 1.388
Gene AC079382.2, ribociclib versus control (DMSO)
  log2FoldChange AC079382.2: 1.354
Gene AC079822.1, ribociclib versus control (DMSO)
  log2FoldChange AC079822.1: 1.431
Gene AC083837.1, ribociclib versus control (DMSO)
  log2FoldChange AC083837.1: 1.339
Gene AC090192.2, ribociclib versus control (DMSO)
  log2FoldChange: 1.011
Gene AC090791.1, ribociclib versus control (DMSO)
  log2FoldChange AC090791.1: 1.427
Gene AC091979.1, ribociclib versus control (DMSO)
  log2FoldChange AC091979.1: 1.343
Gene AC092155.1, ribociclib versus control (DMSO)
  log2FoldChange AC092155.1: 1.397
Gene AC097515.1, ribociclib versus control (DMSO)
  log2FoldChange: 1.0019
Gene AC099670.3, ribociclib versus control (DMSO)
  log2FoldChange AC099670.3: 1.409
Gene AC104825.1, ribociclib versus control (DMSO)
  log2FoldChange: 1.004
Gene AC106820.6, ribociclib versus control (DMSO)
  log2FoldChange: -1.037
Gene AC109347.2, ribociclib versus control (DMSO)
  log2FoldChange: -1.1248
Gene AC110058.1, ribociclib versus control (DMSO)
  log2FoldChange: 1.015
Gene AC131212.1, ribociclib versus control (DMSO)
  log2FoldChange AC131212.1: 1.427
Gene AC137561.1, ribociclib versus control (DMSO)
  log2FoldChange: 1.012
Gene AC138647.1, ribociclib versus control (DMSO)
  log2FoldChange: -1.219
Gene AC145212.1, ribociclib versus control (DMSO)
  log2FoldChange: 1.01
Gene AC244517.1, ribociclib versus control (DMSO)
  log2FoldChange: 1.017
Gene AC244636.3, ribociclib versus control (DMSO)
  log2FoldChange AC244636.3: 1.403
Gene ADAMTS9-AS1, ribociclib versus control (DMSO)
  log2FoldChange: 1.0086
Gene AGBL5-AS1, ribociclib versus control (DMSO)
  log2FoldChange: -1.023
Gene AGT, ribociclib versus control (DMSO)
  log2FoldChange: 1.003
Gene AL022316.1, ribociclib versus control (DMSO)
  log2FoldChange AL022316.1: 1.386
Gene AL022341.2, ribociclib versus control (DMSO)
  log2FoldChange: -1.05
Gene AL031710.2, ribociclib versus control (DMSO)
  log2FoldChange: -1.373
Gene AL049836.1, ribociclib versus control (DMSO)
  log2FoldChange AL049836.1: 1.378
Gene AL049838.1, ribociclib versus control (DMSO)
  log2FoldChange AL049838.1: 1.369
Gene AL133215.2, ribociclib versus control (DMSO)
  log2FoldChange: -1.053
Gene AL139081.1, ribociclib versus control (DMSO)
  log2FoldChange AL139081.1: 1.4212
Gene AL356010.2, ribociclib versus control (DMSO)
  log2FoldChange AL356010.2: 1.378
Gene AL356481.3, ribociclib versus control (DMSO)
  log2FoldChange: -1.0513
Gene AL590235.2, ribociclib versus control (DMSO)
  log2FoldChange AL590235.2: 1.403
Gene AL592430.1, ribociclib versus control (DMSO)
  log2FoldChange AL592430.1: 1.383
Gene AL929091.1, ribociclib versus control (DMSO)
  log2FoldChange AL929091.1: 1.363
Gene ANP32B, ribociclib versus control (DMSO)
  log2FoldChange: -1.006
Gene AP000866.5, ribociclib versus control (DMSO)
  log2FoldChange: 1.003
Gene AP000944.7, ribociclib versus control (DMSO)
  log2FoldChange: -1.045
Gene AP001172.2, ribociclib versus control (DMSO)
  log2FoldChange: 1.008
Gene AP003464.1, ribociclib versus control (DMSO)
  log2FoldChange AP003464.1: 1.389
Gene AP003486.2, ribociclib versus control (DMSO)
  log2FoldChange AP003486.2: 1.428
Gene ARHGAP11B, ribociclib versus control (DMSO)
  log2FoldChange: -1.378
Gene ARHGAP33, ribociclib versus control (DMSO)
  log2FoldChange: -1.179
Gene ARHGDIG, ribociclib versus control (DMSO)
  log2FoldChange: 1.01
Gene AS3MT, ribociclib versus control (DMSO)
  log2FoldChange: -1.024
Gene ATP13A4-AS1, ribociclib versus control (DMSO)
  log2FoldChange ATP13A4-AS1: 1.408
Gene B4GALNT1, ribociclib versus control (DMSO)
  log2FoldChange: -1.03
Gene BAIAP2L1, ribociclib versus control (DMSO)
  log2FoldChange: -1.14
Gene CA10, ribociclib versus control (DMSO)
  log2FoldChange CA10: 1.3411
Gene CACNG5, ribociclib versus control (DMSO)
  log2FoldChange: -1.03
Gene CADM2-AS1, ribociclib versus control (DMSO)
  log2FoldChange CADM2-AS1: 1.356
Gene CARHSP1, ribociclib versus control (DMSO)
  log2FoldChange: -1.0365
Gene CCDC155, ribociclib versus control (DMSO)
  log2FoldChange CCDC155: 1.343
Gene CCN4, ribociclib versus control (DMSO)
  log2FoldChange: 1.016
Gene CDC7, ribociclib versus control (DMSO)
  log2FoldChange: -1.142
Gene CDSN, ribociclib versus control (DMSO)
  log2FoldChange CDSN: 1.422
Gene CENPI, ribociclib versus control (DMSO)
  log2FoldChange: -1.178
Gene CES3, ribociclib versus control (DMSO)
  log2FoldChange: 1.002
Gene CHAF1A, ribociclib versus control (DMSO)
  log2FoldChange: -1.142
